These results are taken from US10590113B2, “6-hydroxy-4-oxo-1,4-dihydropyrimidine-5-carboxamides as APJ agonists” (priority 2016, dated 2020).

The chains behind the UniProt entries cited, without tags or fusion partners.
UniProt P35414, whole entry: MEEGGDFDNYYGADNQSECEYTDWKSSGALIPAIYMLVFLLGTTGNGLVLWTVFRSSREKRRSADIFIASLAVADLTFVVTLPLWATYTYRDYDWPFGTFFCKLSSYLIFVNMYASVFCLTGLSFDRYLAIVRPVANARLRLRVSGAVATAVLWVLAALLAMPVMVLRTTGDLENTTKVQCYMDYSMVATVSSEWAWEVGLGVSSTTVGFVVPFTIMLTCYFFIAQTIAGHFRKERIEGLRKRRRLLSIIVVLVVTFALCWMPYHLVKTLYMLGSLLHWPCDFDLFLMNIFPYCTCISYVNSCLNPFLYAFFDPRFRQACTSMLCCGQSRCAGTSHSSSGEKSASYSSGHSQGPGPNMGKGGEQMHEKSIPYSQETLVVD

One assay deals with human APJ receptor (Homo sapiens, UniProt P35414). Briefly: Intracellular cAMP Accumulation Assay (APJ hcAMP, HTRF). Type of assay: cell-based. The following applies: read-out: hAPJ cAMP EC50 Potency range, cAMP accumulation, potency range class.
On to `CCCCc1nc(=O)c(C(=O)N2CC[C@H](c3ccccc3)C2)c(O)n1[C@@H](CC)c1cccc(C#N)c1`, for which the EC50 lay within 0.01 to 10 nM.

Turning to `CC[C@@H](c1cccc(C#N)c1)n1c(COC(C)C)nc(=O)c(C(=O)N2CC[C@H](c3ccccc3)C2)c1O`, the EC50 fell in the range of 0.01 to 10 nM.

With `CCCCc1nc(=O)c(C(=O)N2CCC(c3ccc(Cl)cn3)C2)c(O)n1[C@H](c1cccc(C#N)c1)C1CC1` (single isomer, unassigned), the EC50 is 0.01 to 10 nM.

For the compound `CCCCc1nc(=O)c(C(=O)N2CCC(c3ccc(F)cn3)C2)c(O)n1[C@@H](CC)c1cccc(C#N)c1` (single isomer, unassigned), the EC50 fell in the range of 0.01 to 10 nM.

In the case of `CCCCc1nc(=O)c(C(=O)N2CCC(c3ncc(Cl)cc3F)C2)c(O)n1[C@@H](CC)c1cc(F)cc(F)c1` (single isomer, unassigned), the EC50 is 0.01 to 10 nM.

In the case of `CCCCc1nc(=O)c(C(=O)N2CCC(c3ncc(Cl)cc3F)C2)c(O)n1[C@@H](CC)c1cccc(C#N)c1` (single isomer, unassigned), the EC50 lay within 0.01 to 10 nM.

In the case of `CCCCc1nc(=O)c(C(=O)N2CCC(c3ncc(Cl)cc3F)C2)c(O)n1[C@@H](CC)c1ccccc1` (single isomer, unassigned), the EC50 fell in the range of 0.01 to 10 nM.

As to `CCCCc1nc(=O)c(C(=O)N2CCC(c3ncc(F)cc3F)C2)c(O)n1C(CC)c1ccccc1` (single isomer, unassigned), the EC50 lay within 0.01 to 10 nM.

For `CCCCc1nc(=O)c(C(=O)N2CCC(c3ncc(F)cc3F)C2)c(O)n1[C@@H](CC)c1cc(F)cc(F)c1` (single isomer, unassigned), the EC50 was in the range of 0.01 to 10 nM.

Regarding `CCCCc1nc(=O)c(C(=O)N2CCC(c3ncc(F)cc3F)C2)c(O)n1[C@@H](CC)c1cccc(C#N)c1` (single isomer, unassigned), the EC50 was in the range of 0.01 to 10 nM.

In the case of `CCCCc1nc(=O)c(C(=O)N2CCC(c3ncc(F)cc3F)C2)c(O)n1[C@@H](CC)c1cccc(OC)c1` (single isomer, unassigned), the EC50 lay within 0.01 to 10 nM.

Staying with this assay, now noted: read-out: hAPJ cAMP EC50 Potency range, intracellular cAMP accumulation.
`CCCCc1nc(=O)c(C(=O)N2CC[C@@H](c3ccccc3)C2)c(O)n1[C@@H]1CCc2ccccc21`: the half-maximal effective concentration (EC50) was 100 to 300 nM.

As for `CCCCc1nc(=O)c(C(=O)N2CC[C@@H](c3ccccc3)C2)c(O)n1[C@H]1CCCc2ccccc21`, the EC50 was 10 to 100 nM.

In the case of `CCCCc1nc(=O)c(C(=O)N2CC[C@H](c3ccccc3)C2)c(O)n1C(C)c1ccccc1` (some centres unmarked), the EC50 lay in the range of 0.01 to 10 nM.

On to `CCCCc1nc(=O)c(C(=O)N2CC[C@H](c3ccccc3)C2)c(O)n1[C@@H]1CCc2ccccc21`, for which the EC50 lay within 10 to 100 nM.

As for `CCCCc1nc(=O)c(C(=O)N2CC[C@H](c3ccccc3)C2)c(O)n1[C@H]1CCCc2ccccc21`, the EC50 lay in the range of 10 to 100 nM.

Regarding `CCCCc1nc(=O)c(C(=O)N2CCC(c3ccccc3F)C2)c(O)n1[C@@H](CC)c1ccccc1` (single isomer, unassigned), the EC50 lay within 0.01 to 10 nM.
